{
  "source": "patent US20170165627A1",
  "about": "“MICROENCAPSULATION PROCESS” (ENCAPSYS, LLC, priority 2015, published 2017)",
  "origin": "cited, not measured here",
  "conditions": "@ 25° C.",
  "data": [
    {"substance": "Ethoxylated (4) bisphenol A diacrylate [SR601]", "values": [
      {"measurement": "Solubility in water", "result": 0.45, "unit": "g/L"}
    ]},
    {"substance": "ethoxylated (30) bisphenol A diacrylate [SR9038]", "values": [
      {"measurement": "Solubility in water", "result": "Water soluble"}
    ]}
  ]
}
